From PubChem BioAssay (Tox21) come the findings set out here.

Chains of the proteins cited; added tags and fusions are not shown. Lines headed by an entry give the natural chain unless they say otherwise; changes in a name come on top.
UniProt P10275: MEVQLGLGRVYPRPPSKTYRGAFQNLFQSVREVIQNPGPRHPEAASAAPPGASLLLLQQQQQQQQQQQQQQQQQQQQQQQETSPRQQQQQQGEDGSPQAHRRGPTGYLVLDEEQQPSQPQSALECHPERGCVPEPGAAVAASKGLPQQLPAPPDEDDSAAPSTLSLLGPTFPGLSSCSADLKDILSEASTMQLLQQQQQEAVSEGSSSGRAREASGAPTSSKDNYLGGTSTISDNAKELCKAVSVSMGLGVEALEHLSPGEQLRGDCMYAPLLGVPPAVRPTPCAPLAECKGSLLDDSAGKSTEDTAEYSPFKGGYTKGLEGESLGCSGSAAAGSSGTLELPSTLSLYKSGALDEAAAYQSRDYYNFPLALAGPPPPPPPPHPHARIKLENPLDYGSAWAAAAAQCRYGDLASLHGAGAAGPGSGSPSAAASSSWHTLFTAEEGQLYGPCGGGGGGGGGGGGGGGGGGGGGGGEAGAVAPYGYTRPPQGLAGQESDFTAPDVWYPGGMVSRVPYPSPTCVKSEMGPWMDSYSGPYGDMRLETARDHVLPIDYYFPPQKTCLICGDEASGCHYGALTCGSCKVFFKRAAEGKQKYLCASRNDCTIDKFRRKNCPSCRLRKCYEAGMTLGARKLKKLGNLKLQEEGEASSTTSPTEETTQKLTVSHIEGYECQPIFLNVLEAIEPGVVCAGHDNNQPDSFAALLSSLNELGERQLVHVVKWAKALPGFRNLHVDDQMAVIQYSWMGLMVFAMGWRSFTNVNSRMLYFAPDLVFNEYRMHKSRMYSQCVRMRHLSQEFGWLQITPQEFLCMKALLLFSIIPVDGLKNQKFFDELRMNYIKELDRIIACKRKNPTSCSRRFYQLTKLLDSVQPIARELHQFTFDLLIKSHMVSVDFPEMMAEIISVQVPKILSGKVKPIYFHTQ
UniProt Q12809: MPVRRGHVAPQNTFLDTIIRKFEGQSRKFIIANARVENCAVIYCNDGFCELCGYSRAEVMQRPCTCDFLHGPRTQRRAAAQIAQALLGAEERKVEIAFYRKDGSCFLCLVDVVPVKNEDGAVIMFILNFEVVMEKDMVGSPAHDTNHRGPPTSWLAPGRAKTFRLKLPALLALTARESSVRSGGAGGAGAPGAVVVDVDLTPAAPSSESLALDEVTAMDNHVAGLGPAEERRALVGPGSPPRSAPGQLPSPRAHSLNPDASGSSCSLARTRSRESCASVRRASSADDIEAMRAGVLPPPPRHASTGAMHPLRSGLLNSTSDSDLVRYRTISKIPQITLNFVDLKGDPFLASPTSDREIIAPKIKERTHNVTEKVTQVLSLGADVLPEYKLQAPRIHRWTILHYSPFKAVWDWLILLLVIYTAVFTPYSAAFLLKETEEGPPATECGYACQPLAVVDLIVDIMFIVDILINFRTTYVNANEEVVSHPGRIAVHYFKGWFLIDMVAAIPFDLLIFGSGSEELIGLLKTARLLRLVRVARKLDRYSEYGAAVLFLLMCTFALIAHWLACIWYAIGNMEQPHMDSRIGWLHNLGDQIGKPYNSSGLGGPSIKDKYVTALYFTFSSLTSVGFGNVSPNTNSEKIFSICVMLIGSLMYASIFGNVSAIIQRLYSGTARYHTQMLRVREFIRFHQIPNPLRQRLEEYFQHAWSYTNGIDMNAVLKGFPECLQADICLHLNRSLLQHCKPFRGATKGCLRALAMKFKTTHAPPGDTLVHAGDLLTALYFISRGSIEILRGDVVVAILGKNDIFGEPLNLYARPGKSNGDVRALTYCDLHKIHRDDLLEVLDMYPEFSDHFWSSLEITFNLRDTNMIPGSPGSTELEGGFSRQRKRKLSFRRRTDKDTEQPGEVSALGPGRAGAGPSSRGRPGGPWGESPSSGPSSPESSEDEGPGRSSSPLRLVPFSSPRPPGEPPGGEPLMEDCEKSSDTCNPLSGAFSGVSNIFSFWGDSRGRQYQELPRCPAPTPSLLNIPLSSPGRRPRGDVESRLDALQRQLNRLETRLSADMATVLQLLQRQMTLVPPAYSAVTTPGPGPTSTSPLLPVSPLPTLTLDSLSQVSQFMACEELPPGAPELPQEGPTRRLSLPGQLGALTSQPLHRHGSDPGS

For some of these results: Shown are results outside the selection of hits, which stands elsewhere. Inconclusive results are not listed. The list shows a part of the results, in another mix than the full data. Active and inactive are the calls of the source. The call rests on the fitted dose curve; in most records, active means well fitted curve in the direction sought with a large enough effect in the repeat runs; inconclusive means weak or mixed curves; inactive means no such curve, though single readings can be large; an effect the other way counts as inactive or inconclusive.

Test [1] concerns the target Androgen receptor (Homo sapiens) (UniProt P10275). As to the kind of experiment: qHTS assay to identify small molecule agonists of the androgen receptor (AR) signaling pathway using the MDA cell line (AID 743040; further: on the % scale 0 is the no-effect control and ±100 the full control effect; nearly all actives have a fitted effect of over 20% in size). As to conditions: MDA-kb2 AR-luc cells, MMTV luciferase, 16 h; at 70.3 µM (top of the series); active compounds read high. On the technique in general: In qHTS, concentration-response curves come from the screen itself.

Test [2] has the same target. As to the kind of experiment: qHTS assay to identify small molecule antagonists of the androgen receptor (AR) signaling pathway using the MDA cell line (AID 743042; further: potency means the concentration at half of the fitted maximal effect; nearly all actives have a fitted effect of over 55% in size). As to conditions: MDA-kb2 AR-luc, MMTV luciferase, R1881 antagonist, 16 h; series mostly up to 70.3 µM.
In test [3] the target is Nuclear receptor subfamily 1 group I member 2 (Homo sapiens) (UniProt O75469). As to the kind of experiment: CYP3A4 induction through human pregnane X receptor (PXR) by small molecules, qHTS assay (AID 1346984). Further: on the % scale 0 is the no-effect control and ±100 the full control effect; nearly all actives have a fitted effect of over 40% in size. The settings on record: DPX-2 HepG2 PXR, CYP3A4-luciferin luminescence, 24 h; series mostly up to 46.1 µM. In outline: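 Read-out is luminescence after One-Glo addition, following a 3 hr, 37C incubation with Luciferin-IPA CYP3A4 substrate (3uM final). Before that, compounds were on DPX-2 cells (HepG2 co-transfected with PXR element plus CYP3A4-promoter luciferase) for 24 hr at 37C.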

For test [4] the target is unchanged. As to the kind of experiment: Human pregnane X receptor (PXR) activation by small molecules, qHTS assay (AID 1346985). Further: on the % scale 0 is the no-effect control and ±100 the full control effect; nearly all actives have a fitted effect of over 40% in size. As to conditions: DPX-2 HepG2 CYP3A4-luciferase, 24 h; series mostly up to 38.3 µM.
In test [5] the target is Voltage-gated inwardly rectifying potassium channel KCNH2 (Homo sapiens) (UniProt Q12809). As to the kind of experiment: Human Ether-a-go-go-Related Gene (hERG) channel small molecule antagonists: fluorescence cell-based qHTS assay (AID 1671200). Further: potency means the concentration at half of the fitted maximal effect; nearly all actives have a fitted effect of over 50% in size. The settings on record: hERG-U2OS cells, FluxOR thallium flux fluorescence. An outline of the steps: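 In this thallium-flux screen, overnight-cultured U2OS cells bearing the channel are dye-loaded in darkness for an hour, rested 10 min at room temperature, and then monitored kinetically at 480/540 nm for two minutes post-stimulus.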

For `CCNC(=O)[C@@H]1CCCN1C(=O)[C@H](CCCN=C(N)N)NC(=O)[C@H](CC(C)C)NC(=O)[C@@H](Cc1c[nH]c2ccccc12)NC(=O)[C@H](Cc1ccc(O)cc1)NC(=O)[C@H](CO)NC(=O)[C@H](Cc1c[nH]c2ccccc12)NC(=O)[C@H](Cc1cnc[nH]1)NC(=O)[C@@H]1CCC(=O)N1`, in test [1], the activity change is inactive: -12.6%. The Potency in test [2] is active: 6.68 µM.

Take `C=CCSCC1Nc2cc(Cl)c(S(N)(=O)=O)cc2S(=O)(=O)N1` (stereo not given): the Potency entry in test [3] and in test [4] was “inactive” each time.

Take `CCCCOCCOCCOCc1cc2c(cc1CCC)OCO2`: the Potency result in test [3] and in test [4] was “inactive” in each case.

`O[C@@H](c1cc(C(F)(F)F)nc2c(C(F)(F)F)cccc12)[C@H]1CCCCN1`: the Potency in test [5] is active: 21.3 µM.

Turning to `CN1CCCCC1CCN1c2ccccc2Sc2ccc(S(C)=O)cc21` (stereo not given), the Potency in test [5] is active: 6.01 µM.

As to `NS(=O)(=O)c1cc(C2(O)NC(=O)c3ccccc32)ccc1Cl` (stereo not given), the Potency entry in test [3] and in test [4] was “inactive” each time.
